Measured values reported in ChEMBL document CHEMBL1127469, “Decapeptide agonists of human C5a: the relationship between conformation and spasmogenic and platelet aggregatory activities” (J Med Chem, 1994).

How the values were obtained:
[1] = target: T1, C5a anaphylatoxin chemotactic receptor 1 (Homo sapiens) (UniProt P21730); test: Pharmacological activity against C5a receptor in human fetal artery
T1 sequence (whole entry): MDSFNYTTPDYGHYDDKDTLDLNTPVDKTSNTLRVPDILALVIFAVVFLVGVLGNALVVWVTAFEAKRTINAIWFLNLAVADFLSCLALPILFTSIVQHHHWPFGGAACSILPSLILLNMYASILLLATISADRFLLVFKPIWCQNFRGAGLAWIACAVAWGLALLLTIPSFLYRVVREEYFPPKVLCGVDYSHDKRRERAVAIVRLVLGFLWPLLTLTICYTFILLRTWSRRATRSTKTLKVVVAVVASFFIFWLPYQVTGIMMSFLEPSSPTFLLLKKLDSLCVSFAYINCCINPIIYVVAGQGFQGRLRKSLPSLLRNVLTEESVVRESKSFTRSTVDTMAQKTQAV
Procedure, shortened: (§1)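 Isometric contraction of tissue strips in 2 mL organ baths of Krebs-Ringers solution, 37 °C, pH 7.4, gassed with 95% O2/5% CO2, equilibrated 1 h. Tachyphylaxis prevents cumulative curves, so each strip gets one peptide concentration, then histamine 10 μM. Response is taken as % of the histamine maximum. EC50 comes from probit analysis, reported as pD2 (-log EC50, M), mean ± SE.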

[2] = species: Cavia porcellus; test: Platelet aggregation in guinea pig; type: functional
Procedure, shortened: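 Platelet-rich plasma from arterial blood of anesthetized male Hartley guinea pigs, diluted to 3 × 10^8 platelets/mL in 0.39% sodium citrate. Peptides are serially diluted 1.5-fold and shaken with plasma and a 3 mm glass bead at 100 rpm, 5 min, 37 °C. Aggregation is scored visually at 40×. The threshold is the greatest dilution giving visible aggregation. At least three independent duplicate runs; C5a and C3a serve as standards.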

[3] = species: Homo sapiens; test: Effective dose required for smooth muscle contraction in human fetal artery; type: functional; details: Muscle tissue; procedure, shortened: as §1

Row | Compound | EC50 [3] [µM] | pD2 [1] | Platelet aggregation [2] [µM]
1 | CSCC[C@H](NC(=O)[C@H](CC(=O)O)NC(=O)[C@H](CCCCN)NC(=O)[C@H](Cc1ccccc1)NC(=O)[C@H](CO)NC(=O)[C@@H](N)Cc1ccc(O)cc1)C(=O)N1CCC[C@H]1C(=O)N[C@@H](C)C(=O)N[C@H](C)C(=O)N[C@@H](CCCN=C(N)N)C(=O)O [listing 1 of 2 here] | 17.9 |  | 
2 | CSCC[C@H](NC(=O)[C@H](CC(=O)O)NC(=O)[C@H](CCCCN)NC(=O)[C@H](Cc1ccccc1)NC(=O)[C@H](CO)NC(=O)[C@@H](N)Cc1ccc(O)cc1)C(=O)N1CCC[C@H]1C(=O)N[C@@H](C)C(=O)N[C@H](C)C(=O)N[C@@H](CCCN=C(N)N)C(=O)O [listing 2 of 2 here] |  |  | 90
3 | CSCC[C@H](NC(=O)[C@H](CC(=O)O)NC(=O)[C@H](CCCCN)NC(=O)[C@H](Cc1ccccc1)NC(=O)[C@H](CO)NC(=O)[C@@H](N)Cc1ccc(O)cc1)C(=O)N1CCC[C@H]1C(=O)N[C@@H](CC(C)C)C(=O)N1CCC[C@@H]1C(=O)N[C@@H](CCCN=C(N)N)C(=O)O | 3.7 | 5.57 | 2.7

More lines, in order of falling EC50 [3], values ahead:

Row | EC50 [3] [µM] | Compound | pD2 [1] | Platelet aggregation [2] [µM]
4 | 51.1 | CSCC[C@H](NC(=O)[C@H](CC(=O)O)NC(=O)[C@H](CCCCN)NC(=O)[C@H](Cc1ccccc1)NC(=O)[C@H](CO)NC(=O)[C@@H](N)Cc1ccc(O)cc1)C(=O)N1CCC[C@H]1C(=O)N[C@@H](CC(C)C)C(=O)N[C@H](Cc1ccccc1)C(=O)N[C@@H](CCCN=C(N)N)C(=O)O | 4.53 | 2.3
5 | 0.33 | CC(C)C[C@H](NC(=O)[C@@H]1CCCN1C(=O)[C@H](C)NC(=O)[C@H](CC(=O)O)NC(=O)[C@H](CCCCN)NC(=O)[C@H](Cc1ccccc1)NC(=O)[C@H](CO)NC(=O)[C@@H](N)Cc1ccc(O)cc1)C(=O)N[C@H](C)C(=O)N[C@@H](CCCN=C(N)N)C(=O)O | 6.57 | 0.54
